Assay [1] relates to H3K9me2 in MDA-MB-231 cells. The assay can be described thus: MDA-MB-231 H3K9me2 in-cell western assay (EHMT2 ICW). As to conditions: read-out: EHMT2 ICW (IC50 μM), Table 3. The text has this:
MDA-MB-231 cell line was purchased from ATCC (Manassas, Va., USA). RPMI/Glutamax medium, Penicillin-Streptomycin, Heat Inactivated Fetal Bovine Serum, and D-PBS were purchased from Life Technologies (Grand Island, N.Y., USA). Odyssey blocking buffer, 800 CW goat anti-mouse IgG (H+L) antibody, and Licor Odyssey Infrared Scanner were purchased from Licor Biosciences, Lincoln, Nebr., USA. H3K9me2 mouse monoclonal antibody (Cat #1220) was purchased from Abcam (Cambridge, Mass., USA). 16% Paraformaldehyde was purchased from Electron Microscopy Sciences, Hatfield, Pa., USA). […]
Compound (100 nL) was added directly to 384-well cell plate. […] Plates were allowed to dry at room temperature then imaged on a Licor Odyssey Infrared Scanner (Licor Biosciences) which measured integrated intensity at 700 nm and 800 nm wavelengths. […]
First, the ratio for each well was determined by: […]
The average of the ratio values for each well was calculated and used to determine the percent inhibition for each test well in the plate. […] Percent inhibition was calculated as: […]
IC50 curves were generated using triplicate wells per concentration of compound. […] IC50 values were calculated using a non-linear regression (variable slope-four parameter fit model) with by the following formula: […]

Protein sequences, listed by entry. Tags and fused reporters are not part of them. Residues count along the entry.
UniProt Q96KQ7, 913-1193 limits assumed: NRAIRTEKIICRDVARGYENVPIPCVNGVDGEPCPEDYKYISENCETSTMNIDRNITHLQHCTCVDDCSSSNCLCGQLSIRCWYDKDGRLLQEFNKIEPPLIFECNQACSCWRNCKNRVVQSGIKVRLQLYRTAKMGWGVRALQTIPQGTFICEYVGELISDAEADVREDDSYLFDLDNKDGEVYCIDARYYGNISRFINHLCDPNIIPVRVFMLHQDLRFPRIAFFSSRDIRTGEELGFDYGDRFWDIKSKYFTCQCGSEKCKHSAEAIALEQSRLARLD
UniProt Q9H9B1, whole entry: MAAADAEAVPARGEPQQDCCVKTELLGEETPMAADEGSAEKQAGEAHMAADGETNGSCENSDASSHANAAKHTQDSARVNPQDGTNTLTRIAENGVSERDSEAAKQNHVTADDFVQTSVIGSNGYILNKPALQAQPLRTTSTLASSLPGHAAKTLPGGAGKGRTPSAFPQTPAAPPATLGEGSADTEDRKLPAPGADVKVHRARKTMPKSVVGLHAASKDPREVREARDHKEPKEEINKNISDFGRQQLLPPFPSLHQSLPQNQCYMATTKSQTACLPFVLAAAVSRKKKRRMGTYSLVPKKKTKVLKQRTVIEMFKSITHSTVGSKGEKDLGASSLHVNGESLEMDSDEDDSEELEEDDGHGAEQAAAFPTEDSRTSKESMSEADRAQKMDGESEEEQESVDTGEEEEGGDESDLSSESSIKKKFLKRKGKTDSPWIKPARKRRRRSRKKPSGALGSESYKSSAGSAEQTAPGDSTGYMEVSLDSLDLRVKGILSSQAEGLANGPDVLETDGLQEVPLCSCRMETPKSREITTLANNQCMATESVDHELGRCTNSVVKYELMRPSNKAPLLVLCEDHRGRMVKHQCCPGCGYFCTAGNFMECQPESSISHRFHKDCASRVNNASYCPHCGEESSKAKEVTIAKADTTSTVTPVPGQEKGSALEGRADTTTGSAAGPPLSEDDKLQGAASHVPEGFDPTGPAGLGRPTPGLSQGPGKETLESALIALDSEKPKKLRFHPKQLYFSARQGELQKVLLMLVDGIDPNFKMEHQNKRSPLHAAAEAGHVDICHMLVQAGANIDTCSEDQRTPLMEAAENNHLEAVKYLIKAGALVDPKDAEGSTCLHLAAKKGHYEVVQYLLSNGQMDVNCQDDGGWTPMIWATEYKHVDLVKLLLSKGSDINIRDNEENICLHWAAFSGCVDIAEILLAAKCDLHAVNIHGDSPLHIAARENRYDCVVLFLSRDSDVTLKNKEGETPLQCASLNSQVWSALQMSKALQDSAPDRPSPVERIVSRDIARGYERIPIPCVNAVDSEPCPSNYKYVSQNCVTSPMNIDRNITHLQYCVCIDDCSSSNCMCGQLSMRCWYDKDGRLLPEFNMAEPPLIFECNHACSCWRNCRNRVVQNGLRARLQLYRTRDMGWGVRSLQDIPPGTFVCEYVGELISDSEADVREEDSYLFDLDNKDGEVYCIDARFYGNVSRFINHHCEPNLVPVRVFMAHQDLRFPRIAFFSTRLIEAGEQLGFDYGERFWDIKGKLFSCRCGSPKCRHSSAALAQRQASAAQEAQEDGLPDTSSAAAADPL

For a further assay, the target named is human EHMT2 913-1193 (Homo sapiens, UniProt Q96KQ7). As to the kind of experiment: EHMT2 enzyme assay on histone peptide substrate. Particulars: read-out: EHMT2 PEP (IC50 μM); Table 3; histone H3 1-15 peptide, balanced conditions. The text has this: Recombinant purified human EHMT2 913-1193 ([…]) synthesized by Viva was used for all experiments. Biotinylated histone peptides were synthesized by Biopeptide and HPLC-purified to >95% purity. Streptavidin Flashplates and seals were purchased from PerkinElmer and 384 Well V-bottom Polypropylene Plates were from Greiner. ^3H-labeled S-adenosylmethionine (^3H-SAM) was obtained from American Radiolabeled Chemicals with a specific activity of 80 Ci/mmol. Unlabeled SAM and S-adenosylhomocysteine (SAH) were obtained from American Radiolabeled Chemicals and Sigma-Aldrich respectively. Flashplates were washed in a Biotek ELx-405 with 0.1% Tween. 384-well Flashplates and 96-well filter binding plates were read on a TopCount microplate reader (PerkinElmer). Compound serial dilutions were performed on a Freedom EVO (Tecan) and spotted into assay plates using a Thermo Scientific Matrix PlateMate (Thermo Scientific). Reagent cocktails were added by Multidrop Combi (Thermo Scientific).
10-point curves of test compounds were made on a Freedom EVO (Tecan) using serial 3-fold dilutions in DMSO, beginning at 2.5 mM (final top concentration of compound was 50 t and the DMSO was 2%). […] 384-well Flashplates were read on a TopCount microplate reader (PerkinElmer).

Another assay has as its target EHMT1 (Homo sapiens, UniProt Q9H9B1). As to the kind of experiment: EHMT1 PEP enzyme assay. It counts as biochemical. Particulars: read-out: EHMT1 PEP (IC50 μM); Table 3.

The IC50 is the point on the concentration scale where inhibition reaches its midpoint. For `CCc1ccc(Nc2nc(C)cc(NC)n2)cc1CNCCN1CCCC1`, the IC50 in assay [1] was in the range of 1 to 10 µM; at human EHMT2 913-1193, 1 to 10 µM; on EHMT1, 0.1 to 1 µM.

(Values after patent US20200317642A1, “AMINE-SUBSTITUTED HETEROCYCLIC COMPOUNDS AS EHMT2 INHIBITORS AND DERIVATIVES THEREOF” (Epizyme, Inc., priority 2017, published 2020).)
